The values that follow are results of earlier work, collected in patent publication US20040208926A1 (Pfizer Inc, priority 1997, published 2004).

Structures are written as SMILES.

The conditions of the series: in vivo; cited from earlier work.

On to `CN[C@H]1CC[C@@H](c2ccc(Cl)c(Cl)c2)c2ccccc21` [Sertraline], for which the elimination half-life was 13.8 min.
